# Source: patent publication US4590178A (Ajinomoto Company, Incorporated, priority 1982, dated 1986)
# What was measured:
# [1] = tested on: mouse
# [2] = tested on: rat
substance,measurement,setting,value
Dibenzylphosphoryl-L-alanyl-L-prolyl-L-proline L-arginine salt [Example 1],Median lethal dose (LD50),[1],more than 15 g/kg
same,Median lethal dose (LD50),[2],more than 15 g/kg
